Measured values from publication PMC9408963 (International Journal of Molecular Sciences, 2022).

Assay: in vitro
Conditions: rat

COc1cc([C@@H]2c3cc4c(cc3[C@@H](O)[C@H]3COC(=O)[C@H]23)OCO4)cc(OC)c1O [DMEP, 4′-demethylepipodophyllotoxin]
IC50: 30.8 µM
